Assay results as given in patent publication US9402810B2, “Pouch containing nicotine in free salt form” (TILLCE AB, priority 2011, dated 2016).

Experiment: Storage stability, nicotine degradation products by reversed-phase liquid chromatography
Settings: storage at 25° C./60% RH

CN1CCCC1c1cccnc1.O.O.O=C(O)C(O)C(O)C(=O)O (stereo not shown) [nicotine bitartrat dihydrate, nicotine bitartrate dihydrate]
stability of the nicotine salt in the product: stable
